Laboratory results as given in PMC5818551, “Sequences Flanking the Gephyrin-Binding Site of GlyRβ Tune Receptor Stabilization at Synapses” (eNeuro, 2018).

Assays:
full-length gephyrin = biological target: T1, full-length gephyrin (Rattus norvegicus, UniProt Q03555); experiment: ITC of GlyR β-loop variants with full-length gephyrin; type: binding
T1 construct: performed with recombinant full-length gephyrin rC4 or GephE, cloned into pQE80 vector; His-tag (inferred from pQE80 vector and Ni-NTA purification); made in house; host or cells: E. coli BL21
T1 sequence (Q03555 1-755 isoform Q03555-4): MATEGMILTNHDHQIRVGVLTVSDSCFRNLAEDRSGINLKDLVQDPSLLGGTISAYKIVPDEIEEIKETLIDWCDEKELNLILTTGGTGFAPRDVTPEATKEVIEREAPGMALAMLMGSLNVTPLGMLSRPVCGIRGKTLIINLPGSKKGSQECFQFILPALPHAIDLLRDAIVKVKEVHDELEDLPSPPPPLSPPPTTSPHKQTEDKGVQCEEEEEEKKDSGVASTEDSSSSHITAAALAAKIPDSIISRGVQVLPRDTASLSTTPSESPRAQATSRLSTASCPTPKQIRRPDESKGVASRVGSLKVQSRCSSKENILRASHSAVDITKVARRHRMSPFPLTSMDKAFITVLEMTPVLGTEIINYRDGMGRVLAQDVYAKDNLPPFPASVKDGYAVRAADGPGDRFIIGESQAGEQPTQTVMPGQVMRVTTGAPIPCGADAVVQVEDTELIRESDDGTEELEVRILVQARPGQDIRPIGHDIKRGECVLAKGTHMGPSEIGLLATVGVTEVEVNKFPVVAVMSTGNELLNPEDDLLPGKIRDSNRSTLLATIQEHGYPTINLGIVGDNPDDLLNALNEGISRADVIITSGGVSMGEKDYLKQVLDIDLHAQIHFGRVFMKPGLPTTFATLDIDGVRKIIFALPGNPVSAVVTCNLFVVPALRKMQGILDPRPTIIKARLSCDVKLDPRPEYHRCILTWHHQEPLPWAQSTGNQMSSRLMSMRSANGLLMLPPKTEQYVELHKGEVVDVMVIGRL

[1] = mean ± SEM, three or more independent measurements, SEM

Row | Compound | binding stoichiometry with gephyrin (N), one-site binding model (full-length gephyrin; 25°C, averaged values, n = 4-9) | Binding enthalpy ΔH, one-site model (full-length gephyrin; [1]) | Binding entropy ΔS, one-site model (full-length gephyrin; [1]) | Deff of extrasynaptic trajectories (sptPALM, rat spinal cord neurons), Q1/Q2/Q3; value: the median Q2 (full-length gephyrin rC4) | Deff of synaptic trajectories (sptPALM, rat spinal cord neurons), Q1/Q2/Q3; value: the median Q2 (full-length gephyrin rC4) | explored area of extrasynaptic trajectories (sptPALM, rat spinal cord neurons), Q1/Q2/Q3; value: the median Q2 (full-length gephyrin rC4) | explored area of synaptic trajectories (sptPALM, rat spinal cord neurons), Q1/Q2/Q3; value: the median Q2 (full-length gephyrin rC4)
1 | CC[C@H](C)[C@H](NC(=O)[C@H](CO)NC(=O)[C@H](Cc1ccccc1)NC(=O)[C@H](CC(=O)O)NC(=O)[C@H](CC(N)=O)NC(=O)[C@H](CO)NC(=O)[C@H](CCCNC(=N)N)NC(=O)[C@H](CC(C)C)NC(=O)[C@H](CC(=O)O)NC(=O)[C@H](CO)NC(=O)[C@H](CCCCN)NC(=O)[C@H](CO)NC(=O)[C@@H](NC(=O)[C@H](CS)NC(=O)[C@@H](NC(=O)[C@H](CCCCN)NC(=O)[C@H](CCCCN)NC(=O)[C@H](CS)NC(=O)[C@H](CCCNC(=N)N)NC(=O)[C@@H](NC(=O)[C@H](CCC(=O)O)NC(=O)CNC(=O)[C@@H](N)C(C)C)[C@@H](C)O)C(C)C)[C@@H](C)O)C(=O)N[C@H](C(=O)NCC(=O)N[C@@H](CO)C(=O)N[C@@H](CC(C)C)C(=O)N1CCC[C@H]1C(=O)N[C@@H](CCCNC(=N)N)C(=O)N1CCC[C@H]1C(=O)NCC(=O)N[C@@H](CCC(=O)O)C(=O)N[C@@H](CC(C)C)C(=O)N[C@@H](CO)C(=O)N[C@@H](CC(N)=O)C(=O)N[C@@H](Cc1ccc(O)cc1)C(=O)N[C@@H](CC(=O)O)C(=O)N[C@@H](CS)C(=O)N[C@@H](Cc1ccc(O)cc1)C(=O)NCC(=O)N[C@@H](CCCCN)C(=O)N1CCC[C@H]1C(=O)N[C@H](C(=O)N[C@@H](CCC(=O)O)C(=O)N[C@H](C(=O)N[C@@H](CC(N)=O)C(=O)N[C@@H](CC(N)=O)C(=O)NCC(=O)N[C@@H](CC(C)C)C(=O)O)C(C)C)[C@@H](C)CC)C(C)C [βL-D407P/F408G] | 0.241±0.023 | –13.8 ± 3.2 kcal/mol | –21.7 ± 11 cal/mol * K | – | – | – | –
2 | TMD-βL-wt: β-loop of GlyRβ (N334-A455) fused at its C terminus to a single TM of syntaxin and extracellular Dendra2 | – | – | – | 0.07 µm^2 · s^−1 | 0.05 µm^2 · s^−1 | 0.00163 µm^2 | 0.00123 µm^2
